For two compounds, IC50 results are on record in patent US9303005B2, “Use of dibenzofuranone derivatives to inhibit kinases” (priority 2010, dated 2016).

Protein sequences, listed by entry. Tags and fused reporters are not part of them.
UniProt P68400, whole entry: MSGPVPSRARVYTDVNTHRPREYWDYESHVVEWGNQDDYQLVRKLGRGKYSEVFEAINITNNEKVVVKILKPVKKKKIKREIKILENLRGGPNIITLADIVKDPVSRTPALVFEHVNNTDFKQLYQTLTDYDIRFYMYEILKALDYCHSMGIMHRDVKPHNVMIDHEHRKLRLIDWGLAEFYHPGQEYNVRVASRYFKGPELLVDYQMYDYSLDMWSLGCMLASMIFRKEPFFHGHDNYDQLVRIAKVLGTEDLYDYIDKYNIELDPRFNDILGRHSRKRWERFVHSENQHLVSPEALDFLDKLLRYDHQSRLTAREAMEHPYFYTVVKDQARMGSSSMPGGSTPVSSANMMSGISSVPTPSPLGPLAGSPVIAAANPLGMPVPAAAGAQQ

One assay has as its system CK2. To be noted: prior-art value; read-out: IC50 (CK2, literature); cited from earlier work.
Another assay addresses CK2 holoenzyme (Homo sapiens (Human), UniProt P68400). Nature of the assay: capillary electrophoretic CK2 inhibition/activity test (E-peptide substrate). It is filed as biochemical. The note with it: ten minutes pre-incubation.

As for `CN(C)c1nc2c(Br)c(Br)c(Br)c(Br)c2[nH]1` [DMAT, 2-dimethylamino-4,5,6,7-tetrabromobenzimidazole], the IC50 – broadly, the concentration needed to halve the response being measured – in the assay on CK2 was 0.14 µM.

Turning to `CC(C)=CC(=O)c1oc2c(Cl)c(Cl)c(O)c(C#N)c2c1N` [Ric151], the IC50 against CK2 holoenzyme worked out at 0.2 µM.
